Reference: PubChem BioAssay (NCI)
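96-well plates; 48 h exposure; 5 concentrations. Endpoints by linear interpolation between flanking doses. Not reached: highest tested concentration assigned. The concentration for 50% growth inhibition is given as GI50. TGI is the concentration that stops growth completely.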

Legend:
Assay in all cases: NCI anticancer screen, dose series, 48 h
[1] = tested on: SNB-75 CNS
[2] = tested on: OVCAR-4 ovarian
[3] = tested on: IGROV1 ovarian
[4] = tested on: SK-MEL-5 melanoma
[5] = tested on: A498 renal
[6] = tested on: NCI/ADR-RES ovarian
[7] = tested on: U251 CNS
[8] = tested on: SF-295 CNS
[9] = tested on: NCI-H460 lung
[10] = tested on: OVCAR-5 ovarian
[11] = tested on: M14 melanoma
[12] = tested on: K-562 leukemia
[13] = tested on: RXF 393 renal
[14] = tested on: MDA-MB-435
[15] = tested on: LOX IMVI melanoma
[16] = tested on: SW-620 colon
[17] = tested on: DU-145 prostate
[18] = tested on: CAKI-1 renal
[19] = tested on: A549 NSCLC
[20] = tested on: SF-539 CNS
[21] = tested on: HCC-2998 colon
[22] = tested on: UO-31 renal
[23] = tested on: HL-60(TB) leukemia
[24] = tested on: SNB-19 CNS
[25] = tested on: MDA-MB-231 breast
[26] = tested on: NCI-H322M lung
[27] = tested on: SR leukemia
[28] = tested on: UACC-257 melanoma
[29] = tested on: SK-MEL-2 melanoma
[30] = tested on: COLO 205 colon
[31] = tested on: SK-MEL-28 melanoma
[32] = tested on: SN12C renal
[33] = tested on: BT-549 breast
[34] = tested on: NCI-H226 lung
[35] = tested on: SF-268 CNS
[36] = tested on: OVCAR-3 ovarian
[37] = tested on: MCF7 breast
[38] = tested on: HT29 colon
[39] = tested on: OVCAR-8 ovarian
[40] = tested on: HCT-15 colon
[41] = tested on: RPMI-8226 leukemia
[42] = tested on: KM12 colon
[43] = tested on: MOLT-4 leukemia
[44] = tested on: CCRF-CEM leukemia
[45] = tested on: ACHN renal
[46] = tested on: UACC-62 melanoma
[47] = tested on: HCT-116 colon
[48] = tested on: HOP-62 NSCLC
[49] = tested on: HS 578T breast
[50] = tested on: NCI-H522 lung
[51] = tested on: SK-OV-3 ovarian
[52] = tested on: 786-0 renal
[53] = tested on: PC-3 prostate

## COc1c(C)cc(N(CCCl)CCCl)c2ccccc12
[1]
  GI50: 1.8 µM
  TGI: 8.89 µM
[2]
  GI50: 10.1 µM
  TGI: 69.8 µM
[3]
  GI50: 6.47 µM
  TGI: 31.2 µM
[4]
  GI50: 1.8 µM
  TGI: 5.48 µM
[5]
  GI50: 2.2 µM
  TGI: 9.72 µM
[6]
  GI50: 2.57 µM
  TGI: 33 µM
[7]
  GI50: 1.36 µM
  TGI: 7.31 µM
[8]
  GI50: 0.527 µM
  TGI: 2.72 µM
[9]
  GI50: 0.488 µM
  TGI: 13.2 µM
[10]
  GI50: 4.19 µM
  TGI: 20.7 µM
[11]
  GI50: 2.87 µM
  TGI: 14.7 µM
[12]
  GI50: 3.16 µM
  TGI: 27.3 µM
[13]
  GI50: 1.7 µM
  TGI: 4.1 µM
[14]
  GI50: 2.95 µM
  TGI: 14.9 µM
[15]
  GI50: 1.94 µM
  TGI: 12.9 µM
[16]
  GI50: 2.05 µM
  TGI: 22.3 µM
[17]
  GI50: 2.33 µM
  TGI: 12.9 µM
[18]
  GI50: 0.394 µM
  TGI: 1.67 µM
[19]
  GI50: 0.823 µM
  TGI: 21.1 µM
[20]
  GI50: 1.46 µM
  TGI: 4.84 µM
[21]
  GI50: 5.4 µM
  TGI: 20.3 µM
[22]
  GI50: 2.67 µM
  TGI: 8.88 µM
[23]
  GI50: 0.75 µM
  TGI: 4.73 µM
[24]
  GI50: 3.57 µM
  TGI: 46.4 µM
[25]
  GI50: 11.9 µM
  TGI: 40.2 µM
[26]
  GI50: 8.78 µM
  TGI: 31.4 µM
[27]
  GI50: 0.319 µM
  TGI: 4.35 µM
[28]
  GI50: 2.25 µM
  TGI: 14 µM
[29]
  GI50: 2.19 µM
  TGI: 5.42 µM
[30]
  GI50: 7.02 µM
  TGI: 21.8 µM
[31]
  GI50: 10.3 µM
  TGI: 26.3 µM
[32]
  GI50: 1.31 µM
  TGI: 11.8 µM
[33]
  GI50: 2.93 µM
  TGI: 11.1 µM
[34]
  GI50: 9.07 µM
  TGI: 24 µM
[35]
  GI50: 1.23 µM
  TGI: 9.36 µM
[36]
  GI50: 4.66 µM
  TGI: 20.5 µM
[37]
  GI50: 0.866 µM
  TGI: 15.9 µM
[38]
  GI50: 3.26 µM
  TGI: 18.4 µM
[39]
  GI50: 2.06 µM
  TGI: 20.1 µM
[40]
  GI50: 2.42 µM
  TGI: 27.9 µM
[41]
  GI50: 1.67 µM
  TGI: 4.81 µM
[42]
  GI50: 11 µM
  TGI: 36.3 µM
[43]
  GI50: 0.56 µM
  TGI: 3.68 µM
[44]
  GI50: 0.513 µM
  TGI: 4.24 µM
[45]
  GI50: 0.77 µM
  TGI: 4.81 µM
[46]
  GI50: 2.6 µM
  TGI: 13.8 µM
[47]
  GI50: 2.96 µM
  TGI: 39.6 µM
[48]
  GI50: 2.8 µM
  TGI: 17.2 µM
[49]
  GI50: 11.8 µM
  TGI: 61.3 µM
[50]
  GI50: 1.84 µM
  TGI: 3.63 µM
[51]
  GI50: 4.3 µM
  TGI: 36.7 µM
[52]
  GI50: 1.96 µM
  TGI: 5.54 µM
[53]
  GI50: 2.23 µM
  TGI: 23.8 µM
